In this test the target is T1, 5HT uptake, rat brain synaptosomes (Rattus norvegicus, UniProt P31652).
T1 construct: into rat brain synaptosomes; from tissue; host or cells: rat brain synaptosomes
Put plainly: Inhibition of [3H]-5HT uptake into synaptosomes. The class given is biochemical.

By UniProt entry, the sequences of proteins in these tests, tags left out.
UniProt P31652, whole entry: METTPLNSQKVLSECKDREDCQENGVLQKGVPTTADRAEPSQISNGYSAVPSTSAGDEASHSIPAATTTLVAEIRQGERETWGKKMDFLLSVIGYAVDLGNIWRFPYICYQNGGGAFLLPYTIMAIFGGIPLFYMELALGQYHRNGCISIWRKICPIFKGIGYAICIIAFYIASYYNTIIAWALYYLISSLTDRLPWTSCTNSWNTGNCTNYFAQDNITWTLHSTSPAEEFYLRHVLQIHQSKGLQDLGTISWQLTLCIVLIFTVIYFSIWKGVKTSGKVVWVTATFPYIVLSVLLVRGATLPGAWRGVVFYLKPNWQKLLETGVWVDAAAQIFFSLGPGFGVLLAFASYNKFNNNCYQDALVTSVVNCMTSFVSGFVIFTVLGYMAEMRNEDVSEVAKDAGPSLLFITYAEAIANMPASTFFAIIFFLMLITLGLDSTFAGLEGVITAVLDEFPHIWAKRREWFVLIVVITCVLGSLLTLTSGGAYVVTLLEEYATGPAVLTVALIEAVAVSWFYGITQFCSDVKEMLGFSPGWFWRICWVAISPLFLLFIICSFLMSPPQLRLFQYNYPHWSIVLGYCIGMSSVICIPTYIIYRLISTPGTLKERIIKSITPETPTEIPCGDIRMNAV

As a reminder, the IC50 is the concentration that inhibits the measured activity by half. A lower IC50 goes with higher potency. On to `CNCCC=C1c2ccccc2CCc2ccccc21` [NT, nortriptyline, reference compound], for which inhibition was half-maximal at 99 nM (IC50). This lies in the double-digit nanomolar range.
